{"source": "published antibiotic growth screens (doi:10.1038/s41589-023-01349-8)", "note": "This is one part of the list."}
{"tested_on": "A. baumannii ATCC 17978", "experiment": "relative growth (fraction of control); higher = less inhibition", "conditions": "50 µM"}
{"smiles": "CC[C@@H](C)NC=C1C(=O)NC(=O)NC1=O", "relative growth": 0.745}
{"smiles": "C[C@]12CC[C@](C)(O1)[C@H](C(=O)O)[C@@H]2C(=O)O", "relative growth": 0.997}
{"smiles": "C[C@]12CCC(=O)C=C1C=CC1C2CC[C@@]2(C)C1CC[C@@]2(O)CCC(=O)[O-].[K+]", "note": "(some centres not stated)", "relative growth": 0.934}
{"smiles": "Cl.OC1CCCCC1N1CCC(c2ccccc2)CC1", "note": "(configuration not stated)", "relative growth": 1.02}
{"smiles": "O.O=P1(N(CCCl)CCCl)NCCCO1", "note": "(configuration not stated)", "relative growth": 1.14}
{"smiles": "O=c1c(O)c(-c2ccc(O)c(O)c2)oc2c(O)c(O)cc(O)c12", "relative growth": 0.948}
{"smiles": "O=c1cccc2n1C[C@H]1CNC[C@H]2C1", "relative growth": 1.03}
{"smiles": "CNCC(O)c1ccc(O)cc1.CNCC(O)c1ccc(O)cc1.O=C(O)C(O)C(O)C(=O)O", "note": "(configuration not stated)", "relative growth": 1.08}
{"smiles": "COC(=O)[C@@H](N)CCCNC(N)=N[N+](=O)[O-]", "relative growth": 0.897}
{"smiles": "CNC(=O)Oc1ccc2c(c1)[C@]1(C)CCN(C)[C@@H]1N2C.O=S(=O)(O)O", "relative growth": 1.17}
{"smiles": "CNCC(O)c1ccc(O)cc1", "note": "(configuration not stated)", "relative growth": 1.28}
{"smiles": "C#CCN(C)C(C)Cc1ccccc1.Cl", "note": "(configuration not stated)", "relative growth": 0.873}
{"smiles": "CN1CCCCC1c1ccc(-c2cccnc2)nc1.Cl", "note": "(configuration not stated)", "relative growth": 1.07}
{"smiles": "CC(C)[C@@H]1NC[C@@H]2CCCN2C1=O", "relative growth": 1.08}
{"smiles": "C/C=C(\\C)C(=O)O[C@H]1C[C@@H](OC(C)=O)[C@@]2(C(=O)OC)CO[C@@H]3C2[C@]12CO[C@](O)(C(=O)OC)[C@H]2[C@](C)(C12O[C@@]1(C)[C@H]1C[C@@H]2OC2OC=C[C@@]21O)[C@@H]3O", "note": "(some centres not stated)", "relative growth": 0.89}
{"smiles": "C=C/C=C\\CC1=C(C)[C@@H](OC(=O)[C@@H]2[C@@H](C=C(C)C)C2(C)C)CC1=O", "relative growth": 1.28}
{"smiles": "CN(C)[C@@H](CN)c1cccc(C(F)(F)F)c1", "relative growth": 1.06}
{"smiles": "C/C=C(/C)C(=O)O[C@H]1CC[C@@]2(C)[C@@H]3CC[C@H]4[C@]5(O)C[C@H](O)[C@@]6(O)[C@@H](CN7C[C@@H](C)CC[C@H]7[C@@]6(C)O)[C@]5(O)C[C@@]42O[C@]13O.Cl", "relative growth": 1.08}
{"smiles": "O=C(O)C[C@H]1CC[C@@H]2NC[C@H](O)COC[C@H]2O1", "relative growth": 0.931}
{"smiles": "CCOP(=S)(OCC)Oc1cc(C)nc(C(C)C)n1", "relative growth": 1.07}
{"smiles": "CCCN1C[C@H](CSC)C[C@@H]2c3cccc4[nH]cc(c34)CC21.CS(=O)(=O)O", "note": "(some centres not stated)", "relative growth": 1.29}
{"smiles": "CN1CCN(c2nc(=O)c3c([nH]2)CCCC3)CC1", "relative growth": 0.843}
{"smiles": "CC(NC(C)(C)C)C(=O)c1cccc(Cl)c1.Cl", "note": "(configuration not stated)", "relative growth": 1.04}
{"smiles": "CNC(C)C(O)c1ccccc1.Cl", "note": "(configuration not stated)", "relative growth": 1.18}
{"smiles": "COc1cc2c(cc1C=O)OCO2", "relative growth": 0.973}
{"smiles": "O=C(NC(=O)c1ccccc1Cl)Nc1ccc(OC(F)(F)F)cc1", "relative growth": 0.902}
{"smiles": "Cc1ccc(-n2nccn2)c(C(=O)N2CCN(c3nc4cc(Cl)ccc4o3)CC[C@H]2C)c1", "relative growth": 1.04}
{"smiles": "Cl.c1ccc2c(c1)OCC(C1=NCCN1)O2", "note": "(configuration not stated)", "relative growth": 1.19}
{"smiles": "CCN(CC)CCOC(=O)C(O)(c1ccccc1)c1ccccc1.Cl", "relative growth": 0.97}
{"smiles": "N[C@H]1C[C@@H]1c1ccccc1", "relative growth": 0.995}
{"smiles": "COP(=S)(OC)Oc1ccc(Sc2ccc(OP(=S)(OC)OC)cc2)cc1", "relative growth": 1.2}
{"smiles": "CCOP(=S)(OCC)Oc1nc(Cl)c(Cl)cc1Cl", "relative growth": 1.06}
{"smiles": "O=c1[n-]c(=O)n(Cl)c(=O)n1Cl.[Na+]", "relative growth": 1.07}
{"smiles": "CO/C1=C\\C(C)=C\\[C@@H](C)[C@@H](O)[C@@H](C)C/C(C)=C/C=C/[C@H](OC)[C@@H]([C@@H](C)[C@@H](O)[C@H](C)C(=O)/C=C/[C@H](C)[C@H](O)C(C)C)OC1=O", "relative growth": 1.16}
{"smiles": "NC(=O)CS(=O)C(c1ccccc1)c1ccccc1", "note": "(configuration not stated)", "relative growth": 1.12}
{"smiles": "c1ccc2c(c1)sc1ccccc12", "relative growth": 1.35}
{"smiles": "CC(C)CC1C(=O)N2CCC[C@H]2C2(O)O[C@](NC(=O)C3C=C4c5cccc6[nH]c(Br)c(c56)C[C@H]4N(C)C3)(C(C)C)C(=O)N12.CS(=O)(=O)O", "note": "(some centres not stated)", "relative growth": 1.04}
{"smiles": "CC(C)(CN)CNc1ccc([N+](=O)[O-])c2cccnc12", "relative growth": 0.955}
{"smiles": "CC[C@H]1CN2CCc3cc(OC)c(OC)cc3C2C[C@@H]1CC1NCCc2cc(OC)c(OC)cc21.Cl.Cl", "note": "(some centres not stated)", "relative growth": 0.884}
{"smiles": "CN1C(=O)CCS(=O)(=O)C1c1ccc(Cl)cc1", "note": "(configuration not stated)", "relative growth": 1.21}
{"smiles": "O=C(NC(O)C(Cl)(Cl)Cl)NC(O)C(Cl)(Cl)Cl", "note": "(configuration not stated)", "relative growth": 0.927}
{"smiles": "CC(=O)NC1CCSC1=O", "note": "(configuration not stated)", "relative growth": 0.921}
{"smiles": "O=C(O)Cc1cnc[nH]1", "relative growth": 0.981}
{"smiles": "C[C@]12CCC3c4ccc(OC(=O)N(CCCl)CCCl)cc4CCC3C1CC[C@@H]2O", "note": "(some centres not stated)", "relative growth": 1.15}
{"smiles": "[N-]=[N+]=NCc1ccccc1C[C@]1(C(=O)NCCN2CCOCC2)N=C(c2ccc(OCCCO)cc2)O[C@H]1c1ccccc1N=[N+]=[N-]", "relative growth": 1.05}
{"smiles": "CNC(=O)Oc1ccccc1OC(C)C", "relative growth": 1.08}
{"smiles": "COC(=O)NC(=S)Nc1ccccc1NC(=S)NC(=O)OC", "relative growth": 0.962}
{"smiles": "CCOP(=S)(OCC)Oc1ccc2c(C)c(Cl)c(=O)oc2c1", "relative growth": 0.933}
{"smiles": "CO[C@@H]1C=C[C@@H]2[C@H]1N2CCCO", "note": "(some centres not stated)", "relative growth": 0.926}
{"smiles": "[N-]=[N+]=Nc1ccccc1C[C@@]1(C(=O)NCc2ccccc2)N=C(c2ccc(OCCCO)cc2)O[C@@H]1c1ccccc1N=[N+]=[N-]", "relative growth": 1.2}
{"smiles": "CC(CCc1ccccc1)NC(C)C(O)c1ccc(O)cc1.Cl", "note": "(configuration not stated)", "relative growth": 0.939}
{"smiles": "CC(=O)O[C@H]1C(=O)[C@@]2(C)C([C@H](OC(=O)c3ccccc3)[C@]3(O)C[C@H](O)C(C)=C1C3(C)C)[C@]1(OC(C)=O)CO[C@@H]1C[C@@H]2O", "note": "(some centres not stated)", "relative growth": 0.913}
